The assay addresses b-Raf (V600E) (Homo sapiens (Human), UniProt P15056, V600E). Particulars: tested form: TFA.

Chains of the proteins cited; added tags and fusions are not shown.
UniProt P15056, whole entry V600E: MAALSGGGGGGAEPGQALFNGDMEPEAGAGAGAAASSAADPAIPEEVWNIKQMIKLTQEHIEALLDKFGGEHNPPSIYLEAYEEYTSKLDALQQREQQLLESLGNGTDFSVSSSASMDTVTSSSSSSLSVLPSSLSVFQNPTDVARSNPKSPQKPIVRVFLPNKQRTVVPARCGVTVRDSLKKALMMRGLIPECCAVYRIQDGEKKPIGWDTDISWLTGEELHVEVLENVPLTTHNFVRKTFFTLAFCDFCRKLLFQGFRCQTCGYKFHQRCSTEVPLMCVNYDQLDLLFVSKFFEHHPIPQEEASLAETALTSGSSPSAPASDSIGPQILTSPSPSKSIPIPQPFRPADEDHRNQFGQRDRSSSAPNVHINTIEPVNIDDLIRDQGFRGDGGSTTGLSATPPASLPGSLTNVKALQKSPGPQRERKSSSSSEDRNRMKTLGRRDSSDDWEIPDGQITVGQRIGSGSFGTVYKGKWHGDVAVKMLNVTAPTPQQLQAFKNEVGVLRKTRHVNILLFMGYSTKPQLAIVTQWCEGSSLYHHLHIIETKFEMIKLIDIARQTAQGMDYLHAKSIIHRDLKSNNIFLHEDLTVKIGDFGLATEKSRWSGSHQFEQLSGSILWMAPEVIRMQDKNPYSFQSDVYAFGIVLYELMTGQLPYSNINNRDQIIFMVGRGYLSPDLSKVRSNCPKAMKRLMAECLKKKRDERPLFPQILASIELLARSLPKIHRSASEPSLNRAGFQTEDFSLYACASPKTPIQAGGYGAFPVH

Among the data in patent US9694016B2 are IC50 values, retold here.

Structures are written as SMILES.

One may read the IC50 as the concentration at which inhibition is half-maximal. A low value points to greater potency in that assay. In turn, `Cc1ccc(NC(=O)c2cccc(S(C)(=O)=O)c2)cc1-c1cc2[nH]cnc2c(N2CCOCC2)n1` gave an IC50 of 2.7 nM.
